Measurements published in ChEMBL document CHEMBL5390309, “Characterization of 2,4-Dianilinopyrimidines Against Five P. falciparum Kinases PfARK1, PfARK3, PfNEK3, PfPK9, and PfPKB” (2023).

Legend:
[1] = tested on: HepG2; assay: Cytotoxicity against human HepG2 cells assessed as cell viability measured after 44 hrs by celltiter-fluor assay
[2] = Plasma protein binding in human assessed as bound fraction incubated for 6 hrs by LC/MS/MS based balanced dialysis method relative to control
[3] = Permeability of compound incubated for 16 hrs by PAMPA based LC-MS/MS analysis
[4] = Stability of the compound assessed as parent compound remaining measured after 6 hrs by LC-MS/MS analysis

For `COc1cc(N2CCOCC2)ccc1Nc1ncc(C(F)(F)F)c(Nc2ccccc2NS(C)(=O)=O)n1`, the CC50 [1] was over 15000 nM, the PPB [2] was 97.6% and the permeability [3] was 17.8 ×10⁻⁶ cm/s. The Stability [4] was 103%.
`Cc1cc(Nc2ncc(Cl)c(Nc3ccccc3NS(C)(=O)=O)n2)ccc1N1CCOCC1` gave a CC50 [1] of 2100 nM, a PPB [2] of 99.1% and a permeability [3] of 20.9 ×10⁻⁶ cm/s. It also gave a Stability [4] of 101%.
With `COc1cc(N2CCOCC2)ccc1Nc1ncc(C2CC2)c(Nc2ccccc2NS(C)(=O)=O)n1` the CC50 [1] was 23000 nM, the PPB [2] was 97.6% and the permeability [3] was 14.8 ×10⁻⁶ cm/s. The Stability [4] was 101%.
In the case of `COc1cc(N2CCOCC2)ccc1Nc1ncc(Cl)c(Nc2ccccc2NS(C)(=O)=O)n1`, the PPB [2] is reported as 99%, the permeability [3] is reported as 21.4 ×10⁻⁶ cm/s and the Stability [4] is reported as 97%.
For `COc1cc(N2CCOCC2)ccc1Nc1ncc(I)c(Nc2ccccc2NS(C)(=O)=O)n1`, the CC50 [1] was over 15000 nM, the PPB [2] was 99.5% and the permeability [3] was 15.5 ×10⁻⁶ cm/s. For the same molecule, the Stability [4] was 99%.
With `COc1cc(Nc2ncc(Cl)c(Nc3ccccc3NS(C)(=O)=O)n2)ccc1N1CCOCC1` the CC50 [1] was 1600 nM, the PPB [2] was 98.6% and the permeability [3] was 20.9 ×10⁻⁶ cm/s. The Stability [4] was 103%.
With `COc1cc(N2CCOCC2)ccc1Nc1ncc(C#N)c(Nc2ccccc2NS(C)(=O)=O)n1` the CC50 [1] was over 50000 nM, the PPB [2] was 94.6% and the permeability [3] was 15.1 ×10⁻⁶ cm/s. For the same molecule, the Stability [4] was 92%.
Molecule `CS(=O)(=O)Nc1ccccc1Nc1nc(Nc2ccc(N3CCOCC3)c(Cl)c2)ncc1Cl` has a CC50 [1] of 2800 nM, a PPB [2] of 99.4% and a permeability [3] of 12 ×10⁻⁶ cm/s. The Stability [4] was 98%.
Work on `CS(=O)(=O)Nc1ccccc1Nc1nc(Nc2ccc(N3CCOCC3)cc2)ncc1Cl` yielded a CC50 [1] of 1500 nM, a PPB [2] of 95.9% and a permeability [3] of 19.1 ×10⁻⁶ cm/s. The Stability [4] was 105%.
`COc1cc(N2CCOCC2)ccc1Nc1ncc(Br)c(Nc2ccccc2NS(C)(=O)=O)n1` gave a CC50 [1] of 9800 nM, a PPB [2] of 99.3% and a permeability [3] of 18.2 ×10⁻⁶ cm/s. It also gave a Stability [4] of 101%.
